Earlier results on one compound are cited in patent publication US12122816B2, “Long acting peptide tyrosine tyrosine (PYY) analogs and methods of use” (Intarcia Therapeutics, Inc., priority 2020, dated 2024).

For this data set the following is noted: in humans; cited from earlier work.

As for `CC[C@H](C)[C@H](NC(=O)[C@@H]1CCCN1C(=O)CNC(=O)[C@H](Cc1ccccc1)NC(=O)[C@H](CC(N)=O)NC(=O)[C@H](CC(N)=O)NC(=O)[C@H](CO)NC(=O)[C@H](CO)NC(=O)[C@H](Cc1c[nH]cn1)NC(=O)[C@@H](NC(=O)[C@H](CC(C)C)NC(=O)[C@H](Cc1ccccc1)NC(=O)[C@H](CC(N)=O)NC(=O)[C@H](C)NC(=O)[C@H](CC(C)C)NC(=O)[C@H](CCCNC(=N)N)NC(=O)[C@H](CCC(N)=O)NC(=O)[C@@H](NC(=O)[C@H](C)NC(=O)[C@@H]1CSSC[C@H](NC(=O)[C@@H](N)CCCCN)C(=O)N[C@@H](CC(N)=O)C(=O)N[C@@H]([C@@H](C)O)C(=O)N[C@@H](C)C(=O)N[C@@H]([C@@H](C)O)C(=O)N1)[C@@H](C)O)C(C)C)C(=O)N[C@@H](CC(C)C)C(=O)N1CCC[C@H]1C(=O)N1CCC[C@H]1C(=O)N[C@H](C(=O)N[C@@H](CC(N)=O)C(=O)N[C@H](C(=O)NCC(=O)N[C@@H](CO)C(=O)N[C@@H](CC(N)=O)C(=O)N[C@H](C(=O)N[C@@H](Cc1ccc(O)cc1)C(N)=O)[C@@H](C)O)C(C)C)[C@@H](C)O` [pramlintide], the half-life result was “approximately 48 minutes”.
